# Measured values published in PubChem BioAssay AID504904 (The Scripps Research Institute Molecular Screening Center, 2011).
# Protein sequences, listed by entry. Tags and fused reporters are not part of them.
# UniProt P35372, whole entry, looked up: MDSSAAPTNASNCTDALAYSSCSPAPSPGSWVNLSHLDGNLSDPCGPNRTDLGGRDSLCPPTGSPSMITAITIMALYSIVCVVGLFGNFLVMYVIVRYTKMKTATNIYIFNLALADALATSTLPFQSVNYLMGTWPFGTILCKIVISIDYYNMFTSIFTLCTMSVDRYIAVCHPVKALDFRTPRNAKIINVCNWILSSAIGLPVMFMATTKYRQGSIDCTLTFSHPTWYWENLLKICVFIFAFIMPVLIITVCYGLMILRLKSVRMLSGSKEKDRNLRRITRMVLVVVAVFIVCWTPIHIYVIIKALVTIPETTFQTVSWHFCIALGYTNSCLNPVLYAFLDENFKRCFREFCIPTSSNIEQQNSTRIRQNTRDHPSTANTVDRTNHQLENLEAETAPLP
# UniProt P41143, whole entry, looked up: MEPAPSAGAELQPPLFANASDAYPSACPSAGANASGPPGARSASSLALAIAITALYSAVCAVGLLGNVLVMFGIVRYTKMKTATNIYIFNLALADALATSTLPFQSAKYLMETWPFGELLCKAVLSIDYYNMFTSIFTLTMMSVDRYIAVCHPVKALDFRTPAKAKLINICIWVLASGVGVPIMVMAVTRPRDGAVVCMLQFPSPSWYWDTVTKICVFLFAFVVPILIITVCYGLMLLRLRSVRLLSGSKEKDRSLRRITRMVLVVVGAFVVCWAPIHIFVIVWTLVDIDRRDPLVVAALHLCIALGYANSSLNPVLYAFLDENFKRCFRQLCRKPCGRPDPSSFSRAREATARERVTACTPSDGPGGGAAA
# Only a part is listed here, and it is no random draw. Calls of active or inactive are those of the source. Cut-off read from the data, not from the text of the source: active = activation above about 18%; inactive = the rest.
# Molecular target: Mu-type opioid receptor (Homo sapiens) + Delta-type opioid receptor (Homo sapiens) (UniProt P35372+P41143)
# Experiment: OPRM1-OPRD1 heterodimer formation agonism – cell-based, luminescence, confirmation (AID 504904);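 note: 0% = vehicle-treated cells and 100% = reference agonist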
# Conditions: cells, MOR-DOR heterodimerization, luminescence complementation; at 9.3 µM; stronger effect = higher value
compound,measurement,value
CN(C(=O)Cc1ccc(Cl)c(Cl)c1)[C@H]1CC[C@@]2(CCCO2)C[C@@H]1N1CCCC1,activation,active: 124%
